Target: mu opioid receptor (rat) (UniProt P33535)
Conditions: receptor: rat MOR

By UniProt entry, the sequences of proteins in these tests, tags left out.
UniProt P33535, whole entry: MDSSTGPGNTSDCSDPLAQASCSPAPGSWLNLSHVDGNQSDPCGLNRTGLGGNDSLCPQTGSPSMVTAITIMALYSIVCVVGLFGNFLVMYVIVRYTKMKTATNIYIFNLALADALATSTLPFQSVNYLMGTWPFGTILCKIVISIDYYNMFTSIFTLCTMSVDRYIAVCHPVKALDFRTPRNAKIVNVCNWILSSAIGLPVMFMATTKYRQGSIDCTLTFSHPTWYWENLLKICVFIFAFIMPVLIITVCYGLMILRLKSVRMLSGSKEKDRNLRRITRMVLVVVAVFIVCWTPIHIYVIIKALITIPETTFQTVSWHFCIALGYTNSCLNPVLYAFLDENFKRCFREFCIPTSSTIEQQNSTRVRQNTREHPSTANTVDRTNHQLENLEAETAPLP

CN(C)C(=O)C(CCN1CCC(O)(c2ccc(Cl)cc2)CC1)(c1ccccc1)c1ccccc1 [Loperamide]
Conditions	pEC50
Gαi1	7.26
Gαi2	8.18
Gαo	7.89
Kir	6.18
cAMP	8.15
βarrestine 1	6.13
βarrestine 2	5.76
βarrestine 2-GRK2	6.44
βarrestine 2-GRK5	6.48
βarrestine 2-GRK6	6.17
